Reference: patent publication US7511119B2, “PRAME peptide analogues” (MannKind Corporation, priority 2005, dated 2009)

How the values were obtained:
[1] = molecular target: HLA-A*0201 (Homo sapiens, UniProt P04439, D140Y/D185E/D98H/E176V/E277Q/G131W/G231S/I119V/I121R/I166T/I218V/L300P/L318F/N151K/N90K/P208A/P217A/Q86G/Q94H/R138H/R169H/T345S); test: Peptide binding using T2 cells; settings: half maximal binding of wild-type peptide relative to analog;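 also: Read-out is peptide-induced stabilization of HLA-A*0201 on the cell surface, reflecting mainly Kon at limiting peptide levels and both Kon and Koff at saturating levels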
[2] = system: T cell lines against natural epitope SSX-241-49; test: Cross-reactivity and functional avidity: IFN-gamma production by T cell lines raised against natural SSX-2 41-49; assay type: cell-based, HHD transgenic mice; settings: T cells raised to native peptide tested on analogs; footnote * and unit not given;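 also: analogs presented ex vivo by competent APCs to T cells specific for the non-mutated epitope, scored by lowest activating concentration, peak cytokine effect and concentration at that peak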

In the case of `CC[C@H](C)[C@H](NC(=O)[C@H](CCCCN)NC(=O)[C@H](CCC(=O)O)NC(=O)[C@H](CO)NC(=O)[C@@H](NC(=O)[C@@H](N)Cc1ccccc1)C(C)C)C(=O)N[C@@H](Cc1ccccc1)C(=O)N[C@@H](Cc1ccc(F)cc1)C(=O)N[C@H](C(=O)O)C(C)C` [SSX2 41-49 (K41F, A42V, Y48(Phe-4F)), FVSEKIF(Phe-4F)V], the “Relative affinity (1/RA)” value [1] is reported as 1.4 and the “Cross-reactivity and fct avidity (native to analogs)*” value [2] is reported as 10.
